From US20260256729A1, “CARBAMOYL PHEN[…] AS TAAR1 AGONISTS” (AXSOME THERAPEUTICS, INC., priority 2022, published 2026)

Chains of the proteins cited; added tags and fusions are not shown.
UniProt P23975, whole entry: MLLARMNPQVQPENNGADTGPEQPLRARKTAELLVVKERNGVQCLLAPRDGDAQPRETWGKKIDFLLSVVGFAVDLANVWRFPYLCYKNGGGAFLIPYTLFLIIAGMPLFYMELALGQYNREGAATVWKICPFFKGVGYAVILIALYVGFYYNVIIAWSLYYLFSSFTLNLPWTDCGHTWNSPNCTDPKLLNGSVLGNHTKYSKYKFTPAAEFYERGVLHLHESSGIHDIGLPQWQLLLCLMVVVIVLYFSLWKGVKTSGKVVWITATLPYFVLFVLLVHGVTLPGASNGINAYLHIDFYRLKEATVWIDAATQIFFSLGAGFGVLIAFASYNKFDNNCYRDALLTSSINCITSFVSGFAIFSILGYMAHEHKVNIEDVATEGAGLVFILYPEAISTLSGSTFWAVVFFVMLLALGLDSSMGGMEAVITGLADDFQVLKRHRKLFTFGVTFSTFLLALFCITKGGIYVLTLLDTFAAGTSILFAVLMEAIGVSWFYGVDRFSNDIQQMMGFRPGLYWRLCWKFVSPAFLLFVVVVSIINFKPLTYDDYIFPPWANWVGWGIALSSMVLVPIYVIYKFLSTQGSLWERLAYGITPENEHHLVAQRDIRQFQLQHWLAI

Molecular target: human norepinephrine transporter (hNET) (Homo sapiens, UniProt P23975)
Assay: hNET inhibition, in vitro binding and functional studies

CC(NC(C)(C)C)C(=O)c1cccc(Cl)c1 (stereo not shown) [Bupropion]
IC50: 2790 nM
